For the assay, the system named is lipase. In words: Lipase/lipolysis assay (EnzChek Lipase Substrate, quenched BODIPY-fatty acid conjugate) on stored human milk.
The mark [1] stands for this setting: compound added to fresh human milk, stored 1 week at −20° C., thawed at room temperature, RFU <400 considered a hit.
Where [2] appears, read: Food Additive Library compound added to fresh human milk, stored 1 week at −20° C., thawed at room temperature, RFU of <400 considered a hit.
The mark [3] stands for this setting: Biolog PM1 compound added to fresh human milk, stored 1 week at −20° C., RFU <400 = hit.
Setting [4] is: Biolog PM5 compound added to fresh human milk, stored 1 week at −20° C., RFU <400 = hit.
The mark [5] stands for this setting: Food-Sourced Compound Library compound added to fresh human milk, stored 1 week at −20° C., thawed at room temperature, RFU <400 considered a hit.
[6] abbreviates: Biolog PM2a compound added to fresh human milk, stored 1 week at −20° C., RFU <400 = hit.

Where a name gives a salt, the structure may show the parent alone.

`C[C@@H]1O[C@@H](OC[C@H]2O[C@@H](Oc3cc(O)c4c(c3)O[C@H](c3ccc(O)c(O)c3)CC4=O)[C@H](O)[C@@H](O)[C@@H]2O)[C@H](O)[C@H](O)[C@H]1O` [Eriocitrin]: the “Lipase (RFU)” value under setting [1] amounted to 1094.778 RFU.

On to `CCCCCCCCCCCCCCCCCCCCCCCC(=O)O` [Lignoceric acid], for which the “Lipase (RFU)” value under setting [1] came out at 1102.31 RFU.

Turning to `O=c1oc2c(O)c(O)cc3c(=O)oc4c(O)c(O)cc1c4c23` [Ellagic acid], the “Lipase (RFU)” value under setting [1] was 878.4604 RFU.

As to `COc1cc2oc(=O)ccc2cc1O` [Isoscopoletin], the “Lipase (RFU)” value under setting [1] is on record as 898.933 RFU.

Consider `Cc1ccc2oc(=O)ccc2c1` [Compound 6-Methylcoumarin, 6-Methylcoumarin], for which, under setting [2], the “Lipase (RFU)” value was 982.8899 RFU.

With `Cn1cnc(C[C@H](N)C(=O)O)c1` [Compound 1-Methyl-L-histidine, 1-Methyl-L-histidine], the “Lipase (RFU)” value under setting [1] came out at 1205.202 RFU.

In the case of `O=C(O)Cc1cccc(O)c1` [m-Hydroxy Phenyl Acetic Acid], the “Lipase (RFU)” value under setting [3] is 1038.295 RFU.

On to `O=c1ccn([C@H]2C[C@H](O)[C@@H](CO)O2)c(=O)[nH]1` [2′-Deoxy Uridine], for which the “Lipase (RFU)” value under setting [4] stood at 822.7632 RFU.

Regarding `O=C1C=CCO1` [2(5H)-Furanone], the “Lipase (RFU)” value under setting [2] amounted to 1095.726 RFU.

Consider `N[C@@H](CCSSCC[C@H](N)C(=O)O)C(=O)O` [L-Homocystine], for which the “Lipase (RFU)” value under setting [5] is on record as 1056.037 RFU.

As for `C[C@@H](O)[C@H](N)C(=O)O` [L-Threonine], the “Lipase (RFU)” value reads like this: under setting [3], 828.6034 RFU; under setting [4], 873.9208 RFU; under setting [2], 824.5923 RFU; under setting [5], 1040.183 RFU.

Turning to `O=c1[nH]c(=O)c2c[nH]nc2[nH]1` [Oxypurinol], under setting [1], the “Lipase (RFU)” value came to 1114.542 RFU.

For the compound `O=C(O)c1ccccc1O` [Salicylic acid], the “Lipase (RFU)” value under setting [2] amounted to 1390.025 RFU.

With `COc1ccc(-c2coc3cc(O[C@@H]4O[C@H](CO)[C@@H](O)[C@H](O)[C@H]4O)ccc3c2=O)cc1` [Ononin], the “Lipase (RFU)” value under setting [1] is listed as 1187.518 RFU.

In the case of `OC[C@@H](O)[C@@H](O)[C@H](O)[C@@H](O)CO` [D-Sorbitol], the “Lipase (RFU)” value was 892.2918 RFU under setting [3], 781.4379 RFU under setting [2] and 713.6691 RFU under setting [1].

`CCCCCCCCCCC(=O)O` [Undecanoic acid]: the “Lipase (RFU)” value turned out to be 946.4563 RFU under setting [2] and 879.0934 RFU under setting [5].

Consider `NCCCCN` [Putrescine], for which the “Lipase (RFU)” value under setting [6] was 985.579 RFU and the “Lipase (RFU)” value under setting [4] was 1083.038 RFU.

`CC(C)c1ccc(C(=O)O)cc1` [4-Isopropylbenzoic acid]: under setting [1], the “Lipase (RFU)” value is 857.7524 RFU.

`CC1CCCCC1=O` (stereo not shown) [Compound 2-Methylcyclohexanone, 2-Methylcyclohexanone]: the “Lipase (RFU)” value under setting [2] was found to be 810.41 RFU.

With `CN1C(=O)C(O)CC1c1cccnc1` (stereo not shown) [Hydroxycotinine], the “Lipase (RFU)” value under setting [5] amounted to 802.5945 RFU.

For the compound `COc1ccc(O)cc1` [Mequinol], under setting [1], the “Lipase (RFU)” value is 791.9775 RFU.

Take `Oc1cccc(O)c1O` [Pyrogallol]: the “Lipase (RFU)” value under setting [1] stood at 896.8381 RFU.

Take `O=c1[nH]cc(CO)c(=O)[nH]1` [Compound 5-Hydroxymethyluracil, 5-Hydroxymethyluracil]: the “Lipase (RFU)” value under setting [1] is on record as 848.2073 RFU.

As to `CN(C)c1ncnc2nc[nH]c12` [6-(Dimethylamino)purine], the “Lipase (RFU)” value under setting [1] is listed as 877.529 RFU.

`CCCCCCCCCCCCCCCC(=O)OC[C@H](O)[C@H]1OC(=O)C(O)=C1O` [6-O-Palmitoyl-L-ascorbic acid]: the “Lipase (RFU)” value (Table 7, single compound 20 mg/mL, human milk stored 1 week at −20° C., inhibited if RFU <400) was 796.394 RFU.

For the compound `CC(=O)C(=O)O` [Pyruvic Acid], the “Lipase (RFU)” value under setting [3] is 757.2242 RFU, the “Lipase (RFU)” value under setting [2] is listed as 1026.646 RFU and the “Lipase (RFU)” value under setting [1] is 964.4253 RFU.

Consider `CCOc1cc(C=O)ccc1O` [Ethylvanillin], for which the “Lipase (RFU)” value under setting [2] is recorded as 949.6167 RFU.

As to `CCOCC(=O)O` [Ethoxyacetic acid], the “Lipase (RFU)” value under setting [1] was determined as 998.8039 RFU.

For `C[C@H](O)C(=O)O` [L-Lactic Acid], the “Lipase (RFU)” value is, setting by setting: under setting [3], 991.1422 RFU; under setting [2], 1144.294 RFU.

In the case of `CCCCCC[C@@H](O)C/C=C\CCCCCCCC(=O)O` [Ricinoleic acid], the “Lipase (RFU)” value under setting [1] is given as 1165.621 RFU.

For the compound `COC(=O)c1ccco1` [Methyl 2-furoate], the “Lipase (RFU)” value is, setting by setting: under setting [2], 964.8008 RFU; under setting [1], 943.7295 RFU.

With `CC(O)(CCO)CC(=O)[O-].[Li+]` (stereo not shown) [Mevalonic acid (lithium salt)], under setting [5], the “Lipase (RFU)” value is listed as 1179.591 RFU.

Regarding `COC(=O)c1ccccc1O` [Methyl Salicylate], the “Lipase (RFU)” value was found to be 1262.516 RFU under setting [2] and 864.5301 RFU under setting [1].

With `O=C(O)c1cccnc1` [Nicotinic Acid], the “Lipase (RFU)” value under setting [4] is on record as 1041.771 RFU.

For the compound `O=P(O)(O)O[C@H]1[C@H](OP(=O)(O)O)[C@@H](OP(=O)(O)O)[C@H](OP(=O)(O)O)[C@@H](OP(=O)(O)O)[C@H]1OP(=O)(O)O` [Inositol Hexaphosphate], the “Lipase (RFU)” value (Biolog PM4 compound added to fresh human milk, stored 1 week at −20° C., RFU <400 = hit) was 930.6695 RFU.

Regarding `N[C@@H](Cc1c[nH]c2ccc(O)cc12)C(=O)O` [L-5-Hydroxytryptophan], the “Lipase (RFU)” value under setting [5] is reported as 950.5763 RFU.

Regarding `O=C(O)CC(O)C(=O)O` (stereo not shown) [Malic acid], the “Lipase (RFU)” value under setting [2] turned out to be 1029.253 RFU.

Take `O=C1O[C@H]([C@@H](O)CO)C(O)=C1O` [L-Ascorbic acid (sodium salt)]: the “Lipase (RFU)” value runs as follows: under setting [2], 1247.113 RFU; under setting [1], 1100.764 RFU.

Turning to `CC(Cc1ccc(O)c(O)c1)C(C)Cc1ccc(O)c(O)c1` (stereo not shown) [Nordihydroguaiaretic acid], the “Lipase (RFU)” value is 879.1514 RFU under setting [2] and 893.7445 RFU under setting [1].

Take `COc1cc(-c2oc3cc(O)cc(O)c3c(=O)c2O[C@@H]2O[C@H](CO)[C@@H](O)[C@H](O)[C@H]2O[C@@H]2O[C@@H](C)[C@H](O)[C@@H](O)[C@H]2O)ccc1O` [Isorhamnetin-3-O-neohespeidoside]: the “Lipase (RFU)” value under setting [1] is on record as 971.4582 RFU.

Take `CC(C)=CCC/C(C)=C\CO` [Nerol]: under setting [2], the “Lipase (RFU)” value is 1033.533 RFU.

In the case of `COC(=O)[C@@H](Cc1ccc(O)c(O)c1)OC(=O)/C=C/c1ccc(O)c(O)c1` [Methyl rosmarinate], the “Lipase (RFU)” value under setting [1] was 1056.902 RFU.

Regarding `CCc1ccc(C=O)cc1` [Compound 4-Ethylbenzaldehyde, 4-Ethylbenzaldehyde], the “Lipase (RFU)” value reads like this: under setting [2], 1140.945 RFU; under setting [1], 703.4998 RFU.

Take `O=C(O)/C=C\C=C/C(=O)O` [cis,cis-Muconic acid]: the “Lipase (RFU)” value under setting [1] is on record as 988.7628 RFU.

For the compound `NC(=O)CCC(=O)O` [Succinamic Acid], the “Lipase (RFU)” value under setting [6] is given as 722.1343 RFU.

Turning to `N[C@@H](Cc1ccccc1)C(=O)O` [L-Phenylalanine], the “Lipase (RFU)” value by setting is: under setting [6], 853.3612 RFU; under setting [4], 595.2894 RFU; under setting [2], 811.2971 RFU; under setting [5], 970.364 RFU.

For the compound `Cc1ccc(C=O)s1` [5-Methyl-2-thiophenecarboxaldehyde], the “Lipase (RFU)” value under setting [2] is 884.2096 RFU.

`Nc1nc2c(c(=O)[nH]1)N=C(CNc1ccc(C(=O)N[C@@H](CCC(=O)O)C(=O)O)cc1)CN2` [Dihydrofolic acid]: under setting [5], the “Lipase (RFU)” value was 1169.779 RFU.

Regarding `O=C[C@H](O)[C@@H](O)[C@@H](O)[C@H](O)CO` [D-Galactose], the “Lipase (RFU)” value under setting [3] is 1015.644 RFU.

The values are drawn from US12507703B2, “Methods, devices and compositions for preserving human milk” (The Trustees of Princeton University, priority 2023, dated 2025).
